Data: patent US20040191303A1, “Use of selectin-binding pregnancy proteins, liposomes, native mucin fragments and mimetic compounds for the treatment and prophylaxis inflammatory diseases, for preventing metastatic spread and for the prophylaxis of tumour diseases” (priority 2000, published 2004)

Target: T1, E-selectin (Homo sapiens, UniProt P16581)
T1 construct: purchased R & D Systems
T1 sequence (P16581 22-610): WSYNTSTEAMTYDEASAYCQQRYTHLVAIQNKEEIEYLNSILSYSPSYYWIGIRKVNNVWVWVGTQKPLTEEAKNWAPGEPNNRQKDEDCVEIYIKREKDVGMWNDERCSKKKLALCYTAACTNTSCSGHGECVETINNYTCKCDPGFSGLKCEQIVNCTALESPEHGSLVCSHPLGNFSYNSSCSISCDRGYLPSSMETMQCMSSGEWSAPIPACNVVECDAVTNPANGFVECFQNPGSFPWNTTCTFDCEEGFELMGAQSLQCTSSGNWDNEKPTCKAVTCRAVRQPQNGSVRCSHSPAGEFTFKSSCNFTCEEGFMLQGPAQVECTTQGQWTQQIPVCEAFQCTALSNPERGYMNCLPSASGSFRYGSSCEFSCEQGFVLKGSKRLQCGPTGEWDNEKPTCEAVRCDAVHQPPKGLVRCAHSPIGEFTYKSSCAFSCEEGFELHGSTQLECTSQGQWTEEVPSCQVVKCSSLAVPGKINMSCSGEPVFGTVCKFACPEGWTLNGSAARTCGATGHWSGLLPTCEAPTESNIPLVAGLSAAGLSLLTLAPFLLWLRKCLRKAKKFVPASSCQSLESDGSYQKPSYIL
Assay: Adhesion inhibition test: HepG2 hepatoma cells to immobilized recombinant E-selectin
Format: cell-based
Conditions: HepG2 cell adhesion; concentration of inhibiting agent for 50% inhibition of adhesion
Description: The adhesion test described below is used in vitro to test the active substances. To this end, either recombinant E-selectin is immobilized on 96-well titer plates, or the expression of E-selectin on activated endothelial cells from veins of human umbilical cords (HUVEC) is induced by stimulation with cytokines. Culturing of HUVEC endothelial cells is also performed in 96-well microtiter plates.
E-selectin (R & D Systems) (5 μg/ml) is immobilized by incubating at 4° C. over-night. The plates are washed with a calcium-containing phosphate buffer (Ca-PBS) and blocked with 1% bovine serum albumin (BSA) for 1 hour at room temperature. Amniotic hCG (0.005-1 nmol/well) is added and pre-incubated for 30 minutes at room temperature. Thereafter, 1×10^5 51Cr-labelled HepG2 hepatoma cells adhering to E-selectin are added, and this is incubated for another 30 minutes at room temperature. Subsequently, the unbound cells are removed by washing 3 times with Ca-PBS, and the bound cells, following lysis with 0.1 N sodium hydroxide solution, are quantified by means of radioactivity measurement. As controls, the carbohydrate-binding domain of E-selectin-blocking monoclonal antibody BBA2 (R & D Systems), EDTA to remove Ca from the test system, and the monovalent tetrasaccharide sialyl-Lewis x (sLe^x) binding selectively but with low affinity are used and carried along in parallel in the test series. […]

- IC50: 1500 µM
Substance: sialyl-Lewis x [sLe^x, reference compound]
